Measurements: publication PMC5295242, “Synthesis of Natural O-Linked Carba-Disaccharides, (+)- and (−)-Pericosine E, and Their Analogues as α-Glucosidase Inhibitors” (Marine Drugs, 2017)

Target: T1, α-mannosidase (Jack bean) (Canavalia ensiformis, UniProt C0HJB3)
T1 construct: purchased Sigma-Aldrich Co. LLC. lot; 055K7047 (catalogue number not given)
T1 sequence (C0HJB3 1-981): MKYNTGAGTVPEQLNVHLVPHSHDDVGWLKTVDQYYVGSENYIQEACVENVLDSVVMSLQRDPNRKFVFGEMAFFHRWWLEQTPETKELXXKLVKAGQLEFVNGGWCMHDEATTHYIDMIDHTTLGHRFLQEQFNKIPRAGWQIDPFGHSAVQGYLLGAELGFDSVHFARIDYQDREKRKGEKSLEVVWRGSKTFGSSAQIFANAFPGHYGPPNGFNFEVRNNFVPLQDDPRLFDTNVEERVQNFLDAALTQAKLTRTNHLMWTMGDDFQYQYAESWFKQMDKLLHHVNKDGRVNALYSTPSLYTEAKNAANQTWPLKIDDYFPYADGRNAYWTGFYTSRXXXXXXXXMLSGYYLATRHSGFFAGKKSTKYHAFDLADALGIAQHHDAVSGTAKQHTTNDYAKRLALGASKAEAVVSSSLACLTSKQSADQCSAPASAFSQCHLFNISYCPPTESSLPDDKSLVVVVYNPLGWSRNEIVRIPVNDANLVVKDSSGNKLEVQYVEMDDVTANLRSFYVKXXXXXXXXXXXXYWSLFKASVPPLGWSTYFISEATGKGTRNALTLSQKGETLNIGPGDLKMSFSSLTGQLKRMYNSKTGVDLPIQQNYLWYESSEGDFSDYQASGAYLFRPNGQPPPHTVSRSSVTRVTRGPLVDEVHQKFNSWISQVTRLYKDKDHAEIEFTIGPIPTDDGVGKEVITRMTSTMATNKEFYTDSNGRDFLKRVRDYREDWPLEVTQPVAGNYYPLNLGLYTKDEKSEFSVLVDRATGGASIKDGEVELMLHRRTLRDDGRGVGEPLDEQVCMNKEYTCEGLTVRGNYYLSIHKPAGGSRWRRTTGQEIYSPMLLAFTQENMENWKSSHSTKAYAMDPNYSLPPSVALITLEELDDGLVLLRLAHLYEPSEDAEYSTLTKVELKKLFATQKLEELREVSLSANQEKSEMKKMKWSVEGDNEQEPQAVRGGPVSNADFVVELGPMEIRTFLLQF
Assay: α-mannosidase inhibition assay (p-nitrophenyl α-D-mannopyranoside substrate)
Assay type: biochemical
Conditions: Jack bean enzyme; NI = no inhibition
Method: Eight samples synthesized here were used in a biological assay against three glycosidases, namely α-glucosidase (yeast), β-glucosidase (sweet almond), and α-mannosidase (Jack bean).
After incubation for 20 min at 37 °C, the reaction was interrupted by the addition of 0.5 M sodium carbonate (100 μL). The amount of p-nitrophenol liberated was measured colorimetrically at 400 nm (optical density at 400 nm: ODtest). […] Assays for β-glucosidase and α-mannosidase were carried out as outlined above using p-nitrophenyl β-D-glucopyranoside and α-D-mannopyranoside as the substrates.
Assays on β-glucosidase and α-mannnosidase inhibition of synthesized carbadisaccharides 6 and 21–23 were carried out in a similar fashion.

SMILES | IC50 [µM]
OC[C@H]1NC[C@@H](O)[C@@H](O)[C@@H]1O [Deoxymannojirimycin, reference compound] | 640
OC[C@H]1NC[C@H](O)[C@@H](O)[C@@H]1O [Deoxynojirimycin (DNJ), 1-Deoxynojirimycin, reference compound] | > 10000
